From patent publication US5084454A, “2-(piperidinylmethyl)-4-phenyl-2,3-dihydro-4H-1,4-benzoxazines useful as antipsychotics” (Farmitalia Carlo Erba S.r.l., priority 1988, dated 1992)
Like-named read-outs stand apart in the source and are kept apart here.

Columns and labels:
D1 dopamine receptor = target: T1, D1 dopamine receptor (Rattus norvegicus, UniProt P18901); experiment: D1 dopamine receptor binding affinity, [3H]cis-Flupenthixol; details: read-out: IC50 D1 [3H]cisFlu.
T1 construct: from tissue

D2 dopamine receptor = target: T2, D2 dopamine receptor (Rattus norvegicus, UniProt P61169); experiment: D2 dopamine receptor binding affinity, [3H]Spiperone
T2 construct: from tissue

5HT2 serotonine receptor = target: T3, 5HT2 serotonine receptor (Rattus norvegicus, UniProt P14842); experiment: 5HT2 serotonine receptor binding affinity, [3H]Ketanserine; details: read-out: IC50 5HT2 [3H]Ket.
T3 construct: from tissue
Method: The activity of the compounds of the present invention was evaluated for example in a series of receptorial binding affinity tests.
J. Pharmacol. 1977, 46, 377; Hyttel, J. Life Sci. 1981, 28, 563; Pedigo et al. Journal of Neurochemistry, 1981, 36, 220; Leysen et al. Molecular Pharmacology, 1981, 21, 301; Battaglia et al. Life Science, 1983, 33, 2011; Greengrass P., Brener R. Eur. J. Pharmacol., 1979, 55, 323; and Perry B. D., U'Prichard D. C. Eur. J. Pharmacol. 1981, 76, 461]
In the table cis-Flu. means cis-Flupenthixol; Spip. means Spiperone; Serot. means Serotonin; Ket. means Ketanserine; Praz. means Prazosin and Yohim. means Yohimbine, respectively. The above internal FCE codes refer to the following compounds

[1] = test system: apomorphine-induced climbing behaviour in mice; experiment: antagonism of apomorphine-induced climbing behaviour in mice; format: in vivo, mouse; details: for ED50 Climbing: oral; for ED50: Mus musculus, po
Method: The activity of the compounds of the present invention on the central nervous system was also evaluated by following for instance the technique of Protais P. et al. (Psychopharmacology, 50, 1 (1976).
The toxicity of the compounds of the invention is negligible, therefore they can be safely used in therapy. Nine hours food deprived mice were treated orally with single administration of increasing doses, then housed and normally fed. The orientative acute toxicity (LD50) was assessed on the seventh day after the treatment and resulted, in general, higher than 600 mg/kg. Following Table 2 summarizes the biological data obtained according to the above mentioned tests for some compounds of the present invention; Haloperidol has been evaluated in the same tests for comparative purposes.

[2] = test system: cataleptic activity in the mouse; details: in vivo, po; for ED50 Catalepsy: 6 h
in vivo [3] = details: mouse, po
in vivo [4] = details: mouse, po, ED50 Catalepsy
mice = details: datum given according to Il Farmaco Ed. Sc. 1976, 31, 442; 10080 min; cited from earlier work

SMILES | IC50 (D1 dopamine receptor) [nM] | IC50 (D2 dopamine receptor; IC50 D2 [3H]Spip.) [nM] | IC50 (5HT2 serotonine receptor) [nM] | ED50 Climbing [1] [mg/kg/os] | ED50 Catalepsy [2] [mg/kg] | IC50 (D2 dopamine receptor; read-out: IC50 D2 [3H]Spip.) [nM] | (ED50 Catalepsy / ED50 Climbing) [2] | LD50 at 168 h (in vivo [3]) [mg/kg] | ED50 [1] [mg/kg] | ED50 at 6 h (in vivo [4]) [mg/kg] | LD50 (mice) [mg/kg/os]
O=C1NCN(c2ccccc2)C12CCN(CC1CN(c3ccccc3)c3ccccc3O1)CC2 (single isomer, unassigned; (+)) [FCE 25895, (+) 2-(1-phenyl-1,3,8-triazaspiro[4,5]decan-4-one-8-yl)-methyl-4-phenyl-2,3-dihydro-4H-1,4-benzoxazine] | 1200 | 5 | 6 | 3.8 | 61 | – | – | – | – | – | –
O=C1NCN(c2ccccc2)C12CCN(CC1CN(c3ccccc3)c3ccccc3O1)CC2 (single isomer, unassigned; (-)) [FCE 25896, (-) 2-(1-phenyl-1,3,8-triazaspiro[4,5]decan-4-one-8-yl)-methyl-4-phenyl-2,3-dihydro-4H-1,4-benzoxazine] | > 10000 | – | 80 | 1.8 | 22.7 | 200 | 12.6 | > 800 | – | – | –
O=C1NCN(c2ccccc2)C12CCN(CC1CN(c3ccccc3)c3ccccc3O1)CC2 (centres unmarked) [FCE 24867, 2-(1-phenyl-1,3,8-triazaspiro[4,5]decan-4-one-8-yl)-methyl-4-phenyl-2,3-dihydro-4H-1,4-benzoxazine] | 1400 | 8 | 40 | – | – | – | – | – | 4.5 | 30.8 | –
O=C1NCN(c2ccccc2)C12CCN(CC1CN(c3ccc(F)cc3)c3ccc(F)cc3O1)CC2 (centres unmarked) [FCE 25452, 2-(1-phenyl-1,3,8-triazaspiro[4,5]decan-4-one-8-yl)-methyl-4-(4-fluorophenyl)-7-fluoro-2,3-dihydro-4H-1,4-benzoxazine] | 900 | 9 | 20 | – | – | – | – | – | – | – | –
OC1(c2cccc(C(F)(F)F)c2)CCN(CC2CN(c3ccccc3)c3ccccc3O2)CC1 (centres unmarked) [FCE 25456, 2-[4-(3-trifluoromethyl-phenyl)-4-hydroxy-piperidin-1-yl]-methyl-4-phenyl-2,3-dihydro-4H-1,4-benzoxazine] | > 10000 | 1 | 100 | – | – | – | 8 | > 800 | 2.5 | 20 | –
O=C1NCN(c2ccccc2)C12CCN(CC1CN(c3ccc(F)cc3)c3ccccc3O1)CC2 (centres unmarked) [FCE 25676, 2-(1-phenyl-1,3,8-triazaspiro[4,5]decan-4-one-8-yl)-methyl-4-(4-fluorophenyl)-2,3-dihydro-4H-1,4-benzoxazine] | 1000 | 2 | 20 | – | – | – | – | – | 4.9 | 75 | –
O=C1NCN(c2ccccc2)C12CCN(CC1CN(c3ccccc3)c3ccc(F)cc3O1)CC2 (centres unmarked) [FCE 25848, 2-(1-phenyl-1,3,8-triazaspiro[4,5]decan-4-one-8-yl)-methyl-4-phenyl-7-fluoro-2,3-dihydro-4H-1,4-benzoxazine] | 2400 | 40 | 30 | – | – | – | – | – | – | – | –
O=C(CCCN1CCC(O)(c2ccc(Cl)cc2)CC1)c1ccc(F)cc1 [Haloperidol, reference compound] | – | – | – | – | – | – | – | – | 0.5 | 2.2 | 71
